As a reminder, the IC50 is the concentration that gives 50% inhibition.

Sequences of proteins named here, by UniProt entry; tags and fusion partners are left off.
UniProt Q9NWZ3, whole entry: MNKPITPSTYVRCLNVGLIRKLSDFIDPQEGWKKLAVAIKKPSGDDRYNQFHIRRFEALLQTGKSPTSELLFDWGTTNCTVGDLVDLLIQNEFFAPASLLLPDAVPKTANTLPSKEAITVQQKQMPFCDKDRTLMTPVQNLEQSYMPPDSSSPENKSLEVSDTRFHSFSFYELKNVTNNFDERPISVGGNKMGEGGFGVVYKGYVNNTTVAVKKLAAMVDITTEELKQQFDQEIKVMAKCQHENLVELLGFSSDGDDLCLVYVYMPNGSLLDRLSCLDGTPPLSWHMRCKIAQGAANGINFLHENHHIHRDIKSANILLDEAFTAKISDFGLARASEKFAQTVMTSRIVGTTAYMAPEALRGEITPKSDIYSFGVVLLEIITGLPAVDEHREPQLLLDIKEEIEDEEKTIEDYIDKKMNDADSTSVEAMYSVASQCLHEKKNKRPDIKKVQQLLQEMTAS

The target of the assay is IRAK4 kinase (Homo sapiens (Human), UniProt Q9NWZ3). Description: IRAK4 kinase activity inhibition assay (ADP-Glo). The note with it: 10 μM ATP, MBP substrate, 60 min at 25° C. How it is done: IRAK4 kinase (purchased from Life Technologies, Cat. No.: PR5612U) was diluted to 2 folds of the final concentration (the final concentration is 0.76 ng/μL) with reaction buffer (40 mM Tris-HCl, pH 7.5; 20 mM MgCl2; 0.1 mg/mL BSA; 1 mM DTT), and added to a 384-well plate at 5 μL/well. The test drugs were 10-fold serial diluted from 10 μM to set six concentration points and added to the test wells of the 384-well plate at 2.5 μL/well. After incubation for 10 min at 25° C., 10 μM of ATP and […] of an enzyme reaction substrate, myelin basic protein MBP (purchased from SignalChem, Cat. No.: M42-51N) were added at 2.5 µL/well, and reacted at 25° C. for 60 minutes. After the reaction was completed, the kinase activity assay was performed using the ADP-Glo™ kinase assay kit (purchased from Promega, Cat. No.: V9102) according to the manufacture's instruction, i.e., 10 μL of ADP-Glo reaction reagent was first added and reacted at 25° C. for 40 minutes, 10 μL of the solution to be tested was taken and mixed with 10 μL of ADP-Glo detection reagent, and reacted at 25° C. for 30 minutes. The kinase activity was then detected, and the IC50 values of the test drugs were calculated.
In general terms: ADP-Glo turns the ADP formed in a reaction into a luminescent signal.

Compound `CN1CCC(C(=O)c2ccc(Nc3nc(N[C@H]4CC[C@H](O)CC4)c4sccc4n3)cc2Cl)CC1` registered an IC50 of 100 to 1000 nM.

For the origin of these results see US10988482B2, “IRAK4 inhibitor and use thereof” (BEIJING HANMI PHARMACEUTICAL CO., LTD., priority 2015, dated 2021).
